# Experimental data as given in US10179123B2, “2-aryl- and 2-arylalkyl-benzimidazoles as mIDH1 inhibitors” (BAYER PHARMA AKTIENGESELLSCHAFT, priority 2015, dated 2019).
# The chains behind the UniProt entries cited, without tags or fusion partners.
# UniProt O75874, whole entry R132H: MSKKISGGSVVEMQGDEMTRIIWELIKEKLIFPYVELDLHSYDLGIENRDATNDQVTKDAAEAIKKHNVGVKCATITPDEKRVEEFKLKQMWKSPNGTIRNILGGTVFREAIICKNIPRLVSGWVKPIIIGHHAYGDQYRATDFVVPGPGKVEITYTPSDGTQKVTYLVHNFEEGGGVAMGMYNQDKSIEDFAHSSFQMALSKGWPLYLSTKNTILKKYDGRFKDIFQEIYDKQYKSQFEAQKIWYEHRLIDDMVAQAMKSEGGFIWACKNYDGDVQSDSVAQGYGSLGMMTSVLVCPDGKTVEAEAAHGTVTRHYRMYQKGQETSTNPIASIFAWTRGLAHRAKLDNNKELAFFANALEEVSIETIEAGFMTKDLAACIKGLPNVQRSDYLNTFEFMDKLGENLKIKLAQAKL
# pIC50: −log10 of the molar value.
# Tests used:
# IDH1 R132H enzyme = IDH1 R132H enzyme (Homo sapiens (Human), UniProt O75874, R132H); experiment: Mutant IDH1 R132H biochemical assay; conditions: NADPH consumption, luminescent readout; 1.5 nM enzyme, 1 μM NADPH, 250 μM α-KG, 30 minutes, 32° C.
# Procedure: Mutant IDH1 R132H Biochemical Assay […] NADPH consumption was measured by luminescent readout. […] The IDH1 R132H enzyme was used in a final concentration of 1.5 nM. […] The final DMSO concentration was 2.4%. […] Luminescence was measured on a luminescent reader (10 seconds measuring time, 1 second integration period, 30% sensitivity). The decrease in luminescence is proportional to mIDH1 activity. IC50 values are determined by interpolation from plots of relative luminescence versus inhibitor concentration.
# [1] = biological target: mutated isocitrate dehydrogenase (mIDH) protein, LN229 R132H cells (Homo sapiens (Human), UniProt O75874, R132H); experiment: Mutant IDH1 cellular assay (2-HG in medium of LN229 R132H cells); type: cell-based; conditions: 2-HG levels in medium, 24 hours
# Procedure: Mutant IDH1 Cellular Assay
# Levels of (2R)-2-hydroxyglutarate (2HG) were measured in medium of a cell line with overexpression of mutated isocitrate dehydrogenase (mIDH) protein. mIDH catalyzes the NADPH-dependent reduction of alpha-ketoglutarate to 2-HG. Cells (LN229 R132H, Mohrenz et al., Apoptosis (2013) 18:1416-1425) were grown in DMEM containing 10% FCS. They were harvested by trypsin and seeded into 96-well plates. Cells were incubated overnight at 37° C. in 5% CO2. The next day test compounds were added to each cell well. The final concentration of DMSO was 0.1% and DMSO controls were included. The plates were then placed in an incubator for 24 hours.
# 2-HG was measured according to Balss et al. (Acta Neuropathol (2012) 124: 883-891). Briefly, HClO4 was added to each well and the plates were centrifuged. Aliquots are removed and incubated with hydroxyglutarate dehydrogenase (HGDH), diaphorase, NAD+, and resazurin. The conversion of resazurin to resorufin was detected by fluorescence spectroscopy at Ex 540 nm Em 600 nm. The increase in fluorescence is proportional to 2-HG production. IC50 values are determined by interpolation from plots of relative fluorescence vs inhibitor concentration.
SMILES,pIC50 (IDH1 R132H enzyme),pIC50 [1]
"C[C@@H]1C[C@H](n2c(-c3ccc(OC(F)(F)F)cc3)nc3cc(C(=O)O)ccc32)CC(C)(C)C1 (single isomer, unassigned) [Example 2-2-1, 2-[4-(trifluoromethoxy)phenyl]-1-[(cis)-3,3,5-trimethylcyclohexyl]-1H-benzimidazole-5-carboxylic Acid]",6.89,
"COC(=O)c1cc2nc(Cc3ccc(OC(F)(F)F)cc3)n([C@H]3C[C@@H](C)CC(C)(C)C3)c2cc1OC (single isomer, unassigned) [Example 2-19-1, methyl 6-methoxy-2-[4-(trifluoromethoxy)benzyl]-1-[(cis)-3,3,5-trimethylcyclohexyl]-1H-benzimidazole-5-carboxylate]",6.00,
"COC(=O)c1cc2nc(Cc3ccc(OC(F)(F)F)cc3)n([C@H]3C[C@@H](C)CC(C)(C)C3)c2cc1OC (single isomer, unassigned) [Example 2-19-2, methyl 6-methoxy-2-[4-(trifluoromethoxy)benzyl]-1-[(cis)-3,3,5-trimethylcyclohexyl]-1H-benzimidazole-5-carboxylate]",7.15,5.92
"COC(=O)c1cc2nc(Cc3ccc(OC(F)(F)F)cc3)n([C@H]3C[C@@H](C)CC(C)(C)C3)c2cc1OCC(F)(F)F (single isomer, unassigned) [Example 2-21-1, methyl 6-(2,2,2-trifluoroethoxy)-2-[4-(trifluoromethoxy)benzyl]-1-[(cis)-3,3,5-trimethylcyclohexyl]-1H-benzimidazole-5-carboxylate]",5.30,
"COC(=O)c1cc2nc(Cc3ccc(OC(F)(F)F)cc3)n([C@H]3C[C@@H](C)CC(C)(C)C3)c2cc1OCC(F)(F)F (single isomer, unassigned) [Example 2-21-2, methyl 6-(2,2,2-trifluoroethoxy)-2-[4-(trifluoromethoxy)benzyl]-1-[(cis)-3,3,5-trimethylcyclohexyl]-1H-benzimidazole-5-carboxylate]",4.92,
"COC(=O)CCc1cc2nc(Cc3ccc(OC(F)(F)F)cc3)n([C@H]3C[C@@H](C)CC(C)(C)C3)c2cc1OC (single isomer, unassigned) [Example 2-28-1, methyl 3-{6-methoxy-2-[4-(trifluoromethoxy)benzyl]-1-[(cis)-3,3,5-trimethylcyclohexyl]-1H-benzimidazol-5-yl}propanoate]",5.92,
"COC(=O)CCc1cc2nc(Cc3ccc(OC(F)(F)F)cc3)n([C@H]3C[C@@H](C)CC(C)(C)C3)c2cc1OC (single isomer, unassigned) [Example 2-28-2, methyl 3-{6-methoxy-2-[4-(trifluoromethoxy)benzyl]-1-[(cis)-3,3,5-trimethylcyclohexyl]-1H-benzimidazol-5-yl}propanoate]",7.00,6.92
"C[C@@H]1C[C@H](n2c(Cc3ccc(OC(F)(F)F)cc3)nc3cc(C(=O)O)ccc32)CC(C)(C)C1 (single isomer, unassigned) [Example 2-29-2, 2-[4-(trifluoromethoxy)benzyl]-1-[(cis)-3,3,5-trimethylcyclohexyl]-1H-benzimidazole-5-carboxylic Acid]",7.30,6.22
"CC(c1ccc(OC(F)(F)F)cc1)c1nc2cc(C(=O)O)ccc2n1[C@H]1C[C@@H](C)CC(C)(C)C1 (single isomer, unassigned) [Example 2-30-1, 2-{1-[4-(trifluoromethoxy)phenyl]ethyl}-1-[(cis)-3,3,5-trimethylcyclohexyl]-1H-benzimidazole-5-carboxylic acid]",5.30,
"CC(c1ccc(OC(F)(F)F)cc1)c1nc2cc(C(=O)O)ccc2n1[C@H]1C[C@@H](C)CC(C)(C)C1 (single isomer, unassigned) [Example 2-30-2, 2-{1-[4-(trifluoromethoxy)phenyl]ethyl}-1-[(cis)-3,3,5-trimethylcyclohexyl]-1H-benzimidazole-5-carboxylic acid]",6.02,
"CC(c1ccc(OC(F)(F)F)cc1)c1nc2cc(C(=O)O)ccc2n1[C@H]1C[C@@H](C)CC(C)(C)C1 (single isomer, unassigned) [Example 2-30-3, 2-{1-[4-(trifluoromethoxy)phenyl]ethyl}-1-[(cis)-3,3,5-trimethylcyclohexyl]-1H-benzimidazole-5-carboxylic acid]",5.70,
"CC(c1ccc(OC(F)(F)F)cc1)c1nc2cc(C(=O)O)ccc2n1[C@H]1C[C@@H](C)CC(C)(C)C1 (single isomer, unassigned) [Example 2-30-4, 2-{1-[4-(trifluoromethoxy)phenyl]ethyl}-1-[(cis)-3,3,5-trimethylcyclohexyl]-1H-benzimidazole-5-carboxylic acid]",< 5.00,

# Next, values leading:
pIC50 (IDH1 R132H enzyme),pIC50 [1],SMILES
6.72,,"C[C@@H]1C[C@H](n2c(-c3ccc(OC(F)(F)F)cc3)nc3cc(C(=O)O)ccc32)CC(C)(C)C1 (racemic) [Example 2-2, (±) 2-[4-(trifluoromethoxy)phenyl]-1-[(cis)-3,3,5-trimethylcyclohexyl]-1H-benzimidazole-5-carboxylic Acid]"
5.46,,"COC(=O)c1ccc2c(c1)nc(Cc1ccccc1)n2[C@H]1C[C@@H](C)CC(C)(C)C1 (racemic) [Example 2-12, (±) methyl 2-benzyl-1-[(cis)-3,3,5-trimethylcyclohexyl]-1H-benzimidazole-5-carboxylate]"
5.10,,"COC(=O)c1ccc2c(c1)nc(Cc1sc(-c3ccccc3)nc1C)n2[C@H]1C[C@@H](C)CC(C)(C)C1 (racemic) [Example 2-15, (±) methyl 2-[(4-methyl-2-phenyl-1,3-thiazol-5-yl)methyl]-1-[(cis)-3,3,5-trimethylcyclohexyl]-1H-benzimidazole-5-carboxylate]"
5.24,,"COC(=O)c1ccc2c(c1)nc(Cc1c(C)[nH]c3ccc(F)cc13)n2[C@H]1C[C@@H](C)CC(C)(C)C1 (racemic) [Example 2-16, (±) methyl 2-[(5-fluoro-2-methyl-1H-indol-3-yl)methyl]-1-[(cis)-3,3,5-trimethylcyclohexyl]-1H-benzimidazole-5-carboxylate]"
5.05,,"COC(=O)c1ccc2c(c1)nc(Cc1cn(C)c3ccccc13)n2[C@H]1C[C@@H](C)CC(C)(C)C1 (racemic) [Example 2-17, (±) methyl 2-[(1-methyl-1H-indol-3-yl)methyl]-1-[(cis)-3,3,5-trimethylcyclohexyl]-1H-benzimidazole-5-carboxylate]"
6.80,5.64,"COC(=O)c1cc2nc(Cc3ccc(OC(F)(F)F)cc3)n([C@H]3C[C@@H](C)CC(C)(C)C3)c2cc1OC (racemic) [Example 2-19, (±) methyl 6-methoxy-2-[4-(trifluoromethoxy)benzyl]-1-[(cis)-3,3,5-trimethylcyclohexyl]-1H-benzimidazole-5-carboxylate]"
< 5.00,,"COC(=O)c1cc2nc(Cc3ccc(OC(F)(F)F)cc3)n([C@H]3C[C@@H](C)CC(C)(C)C3)c2cc1OCC(F)(F)F (racemic) [Example 2-21, (±) methyl 6-(2,2,2-trifluoroethoxy)-2-[4-(trifluoromethoxy)benzyl]-1-[(cis)-3,3,5-trimethylcyclohexyl]-1H-benzimidazole-5-carboxylate]"
6.12,,"C[C@@H]1C[C@H](n2c(Cc3ccc(OC(F)(F)F)cc3)nc3cc(C#N)ccc32)CC(C)(C)C1 (racemic) [Example 2-23, (±) 2-[4-(trifluoromethoxy)benzyl]-1-[(cis)-3,3,5-trimethylcyclohexyl]-1H-benzimidazole-5-carbonitrile]"
6.74,6.30,"COC(=O)CCc1cc2nc(Cc3ccc(OC(F)(F)F)cc3)n([C@H]3C[C@@H](C)CC(C)(C)C3)c2cc1C (racemic) [Example 2-27, (±) methyl 3-{6-methyl-2-[4-(trifluoromethoxy)benzyl]-1-[(cis)-3,3,5-trimethylcyclohexyl]-1H-benzimidazol-5-yl}propanoate]"
6.74,5.96,"COC(=O)CCc1cc2nc(Cc3ccc(OC(F)(F)F)cc3)n([C@H]3C[C@@H](C)CC(C)(C)C3)c2cc1OC (racemic) [Example 2-28, (±) methyl 3-{6-methoxy-2-[4-(trifluoromethoxy)benzyl]-1-[(cis)-3,3,5-trimethylcyclohexyl]-1H-benzimidazol-5-yl}propanoate]"
,6.02,"C[C@@H]1C[C@H](n2c(Cc3ccc(OC(F)(F)F)cc3)nc3cc(C(=O)O)ccc32)CC(C)(C)C1 (racemic) [Example 2-29, (±) 2-[4-(trifluoromethoxy)benzyl]-1-[(cis)-3,3,5-trimethylcyclohexyl]-1H-benzimidazole-5-carboxylic Acid]"
5.57,,CC(c1ccc(OC(F)(F)F)cc1)c1nc2cc(C(=O)O)ccc2n1[C@@H]1C[C@H](C)CC(C)(C)C1 (stereo in doubt) [Example 2-30]
